Measured values taken from patent US8546556B2, “Carbocyclic alpha-L-bicyclic nucleic acid analogs” (Isis Pharmaceuticals, Inc, priority 2007, dated 2013).

Tested on: snake venom phosphodi-esterase (SVPD)

TTTTTTTTTTUαT [ISIS 440140]
Half Life (SVPD 0.0005 U/mL, 50 mM Tris-HCl pH 7.5, 8 mM MgCl2, 37° C., oligomer 5 μm, full-length oligomer by IP-HPLC/MS): 2.7 min
increase of half life compared to unmodified 12 mer DNA oligonucleotide (7157) (SVPD treatment, same conditions as the half life): more than 6 fold
